Among the data in PubChem BioAssay AID454 (Sanford-Burnham Center for Chemical Genomics, 2006) are outcome values, retold here.

The structures appear in SMILES notation. Only a part is listed here, and it is no random draw. Active and inactive are the calls of the source.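 The calls were made as follows: active = compound among top-ranked inhibitors of TNF-induced VCAM-1 adhesion protein staining, with the hit upheld by image or statistical review; inactive = the rest, including hits rejected on review.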

The nature of this experiment: suppression of endothelial VCAM-1 upregulation – cell-based, plate reader, pooled HUVEC, TNFa stimulus (AID 454). The conditions noted are these: HUVEC TNFa-induced VCAM-1 surface immunofluorescence.
In the case of `CP(=O)(Nc1ccccn1)Oc1ccccc1` (stereo not given), the compound was called inactive.

Regarding `CP(=O)(Nc1ccc2c(c1)OCCO2)Oc1ccccc1` (stereo not given), the compound was classed as inactive.

Turning to `CN(C)CCOC(=O)C(O)(c1ccccc1)C1CCCCC1` (stereo not given), the compound was called inactive.

`Cc1ccc(C)c(NP(C)(=O)Oc2ccccc2)c1` (stereo not given): the compound was classed as inactive.

In the case of `CP(=S)(Nn1cnnc1)Oc1ccccc1` (stereo not given), the compound was called inactive.
